# According to patent US20230100062A1, “ANTIMICROBIAL PEPTIDES” (priority 2019, published 2023):
# Columns and labels:
# Assay type in all cases: cell-based
# B. subtilis (ATCC 6633) = conditions: 24 h at 37° C.
# Method: (§1) Minimum Inhibitory Concentrations assay. Minimum inhibitory concentrations (MICs) were determined by broth microdilution on P. aeruginosa, E. coli, S. aureus, M. luteus, B. subtilis, S. typhimurium and K. pneumoniae according to the Clinical and Laboratory Standards Institute. Typically, 100 μL of 0.5-1×10^6 CFU per ml of each bacterium in Mueller Hinton media broth (Oxoid) were incubated in 96-well microtiter plates with 100 μL of serial two-fold dilutions of the corresponding antimicrobial agent (from 100 to 0 μM) at 37° C. on a 3D orbital shaker. The absorbance was measured after the addition of NI01, its derivatives or an antibiotic at 600 nm using a SpectraMax i3× Multi-Mode Microplate Reader (Molecular Devices). MICs were defined as the lowest protein concentration that inhibited visible bacterial growth after 24 h at 37° C.
# E. coli (ATCC 15597) = conditions: 24 h at 37° C.
# Method: as §1
# M. luteus (ATCC 49732) = conditions: 24 h at 37° C.
# Method: as §1
# [1] = system: P. aeruginosa (ATCC 27853); conditions: 24 h at 37° C.
# Method: as §1
# S. aureus (ATCC 6538) = conditions: 24 h at 37° C.
# Method: as §1
# S. typhimurium (DA6192) = conditions: 24 h at 37° C.
# Method: as §1
# Hemolysis assay = conditions: 10% (vol/vol) suspension, pH 7.2; Human erythrocytes, 1 h at room temperature; read-out: HD30, median hemolytic doses to achieve 50% lysis
# Method: Hemolysis assay. Hemolysis was determined using human erythrocytes sourced commercially from Cambridge Bioscience Ltd. and used within two days. 10% (vol/vol) suspensions of human erythrocytes were incubated with NI01, its derivatives or antibiotics. The cells were rinsed four times in 10 mM phosphate buffer saline (PBS, GibcoTM), pH 7.2, by repeated centrifugation and re-suspension (3 min at 3000×g). The cells were then incubated at room temperature for 1 h in either deionized water (fully hemolysed control), PBS, or with a corresponding antimicrobial agent in PBS. After centrifugation at 10,000×g for 5 min, the supernatant was separated from the pellet, and the absorbance was measured at 550 nm using a SpectraMax i3× Multi-Mode Microplate Reader (Molecular Devices). Absorbance of the suspension treated with deionized water defined complete hemolysis. The values given in Table S2 correspond to concentrations needed to lyse half of the sample population (50% lysis of erythrocytes) and are expressed as median hemolytic doses—HD50.
smiles,measurement,setting,value
CC[C@H](C)[C@H](NC(=O)CN)C(=O)NCC(=O)N[C@@H](C)C(=O)N[C@H](C(=O)N[C@@H](CC(C)C)C(=O)N[C@@H](CCCCN)C(=O)N[C@H](C(=O)N[C@@H](CC(C)C)C(=O)N[C@H](C(=O)N[C@H](C(=O)NCC(=O)N[C@@H](CC(C)C)C(=O)N1CCC[C@H]1C(=O)N[C@@H](C)C(=O)N[C@@H](CC(C)C)C(=O)N[C@H](C(=O)N[C@@H](CO)C(=O)N[C@@H](Cc1c[nH]c2ccccc12)C(=O)N[C@H](C(=O)N[C@@H](CCCCN)C(=O)N[C@@H](CCCNC(=N)N)C(=O)N[C@@H](CCCCN)C(=O)N[C@@H](CCCNC(=N)N)C(=O)N[C@@H](CCC(N)=O)C(=O)N[C@@H](CCC(N)=O)C(N)=O)[C@@H](C)CC)[C@@H](C)CC)[C@@H](C)O)[C@@H](C)O)C(C)C)C(C)C [melittin],Minimum Inhibitory Concentration,B. subtilis (ATCC 6633),9 µg/mL
same,Minimum Inhibitory Concentration,E. coli (ATCC 15597),7 µg/mL
same,Minimum Inhibitory Concentration,M. luteus (ATCC 49732),2 µg/mL
same,Minimum Inhibitory Concentration,[1],25 µg/mL
same,Minimum Inhibitory Concentration,S. aureus (ATCC 6538),3 µg/mL
same,Minimum Inhibitory Concentration,S. typhimurium (DA6192),9 µg/mL
same,HC50 at 1 h,Hemolysis assay,5 µg/mL
